Protein sequences, listed by entry. Tags and fused reporters are not part of them.
UniProt P08908, whole entry: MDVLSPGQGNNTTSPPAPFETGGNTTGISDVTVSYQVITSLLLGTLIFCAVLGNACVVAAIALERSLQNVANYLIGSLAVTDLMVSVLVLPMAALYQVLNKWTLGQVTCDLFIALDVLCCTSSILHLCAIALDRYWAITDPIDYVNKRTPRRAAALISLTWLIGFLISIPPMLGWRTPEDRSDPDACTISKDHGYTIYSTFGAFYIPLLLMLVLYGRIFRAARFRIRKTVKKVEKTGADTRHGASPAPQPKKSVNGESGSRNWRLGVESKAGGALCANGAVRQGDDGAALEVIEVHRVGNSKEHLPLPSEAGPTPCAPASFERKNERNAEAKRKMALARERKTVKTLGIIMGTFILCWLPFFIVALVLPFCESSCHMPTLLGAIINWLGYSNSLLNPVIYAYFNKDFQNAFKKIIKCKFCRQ

In ChEMBL document CHEMBL1147799, “An integrated in silico 3D model-driven discovery of a novel, potent, and selective amidosulfonamide 5-HT1A agonist (PRX-00023) for the treatment of anxiety and depression” (J Med Chem, 2006):

Molecular target: 5-hydroxytryptamine receptor 1A (Homo sapiens, UniProt P08908)
Test: Activity against 5HT1A receptor by Gi-[35S]GTP-gamma-S binding assay
Type: functional

With CC(=O)Nc1cccc(N2CCN(CCCCNS(=O)(=O)c3ccc(C)cc3)CC2)c1 the EC50 was 20 nM.
